Publication PMC5469451, “Identification of compounds that suppress Toxoplasma gondii tachyzoites and bradyzoites” (PLoS ONE, 2017)

How the values were obtained:
[1] = system: RH-2F tachyzoites (type I strain) in HFF cells; assay: Confirmatory screening: RH-2F β-galactosidase growth assay in HFF cells; type: cell-based; details: Toxoplasma gondii, 48 h, read-out: Parasite inhibition (%)
Method: In the confirmatory screening, we utilize an RH strain β-galactosidase reporter parasite termed RH-2F (a type I strain). Briefly, RH-2F parasites were purified from freshly lysed infected host cells and used to infect confluent HFF cells cultured in 96-well plates. Five hundred parasites were added to each well, along with each test compound and 50 μL of culture medium. Plates were then incubated for 10 min at room temperature followed by an incubation at 37°C for 48 h in a CO2 incubator.
To measure the effects of tanshinone IIA and hydroxyzine on intracellular parasite growth, parasites were allowed to invade for 2 h, uninvaded parasites were washed away, and medium with compounds was added. After 48 h, the plates were frozen at -80°C. Plates were then thawed just prior to the measurement of beta-galactosidase activity. Beta-Glo (Promega) was used to measure β-galactosidase activity following the manufacturer’s instructions.

[2] = system: PLK/DLUC_1C9 tachyzoites in Vero cells; assay: Primary screening: T. gondii growth assay, Renilla luciferase; type: cell-based; details: Toxoplasma gondii, 48 h, read-out: Parasite Inhibition (%)
Method: In the primary screening, purified PLK/DLULC_1C9 tachyzoites were incubated with Vero cells at a multiplicity of infection (MOI) of 0.5. After a 2-h incubation, the infected host cells were trypsinized to obtain a cell suspension and then these suspended infected cells were inoculated into 96-well optical bottom plates containing the compound library. Each well was inoculated with 2500 cells in 25 μL of culture medium. […] Following cell inoculation, each well therefore contained 0.5% DMSO and 10 μM compound. After 48 h of culture, Renilla luciferase activity was measured by using Renilla-Glo (Promega, WI, USA) following the manufacturer’s instructions. […] The Z’-value for each plate was calculated from the Renilla luciferase activity in the negative and positive control wells.

Molecule `OCCN1CCN(CCCN2c3ccccc3Sc3ccc(C(F)(F)F)cc32)CC1` [FLUPHENAZINE] has an inhibition at 2.5 µM [1] of 19%, an inhibition at 25 µM [1] of 111% and an inhibition at 10 µM [2] of 103%.
